The chains behind the UniProt entries cited, without tags or fusion partners. Where a name states a change or a piece, a line headed by the entry shows the natural chain unless it says otherwise.
UniProt P42338: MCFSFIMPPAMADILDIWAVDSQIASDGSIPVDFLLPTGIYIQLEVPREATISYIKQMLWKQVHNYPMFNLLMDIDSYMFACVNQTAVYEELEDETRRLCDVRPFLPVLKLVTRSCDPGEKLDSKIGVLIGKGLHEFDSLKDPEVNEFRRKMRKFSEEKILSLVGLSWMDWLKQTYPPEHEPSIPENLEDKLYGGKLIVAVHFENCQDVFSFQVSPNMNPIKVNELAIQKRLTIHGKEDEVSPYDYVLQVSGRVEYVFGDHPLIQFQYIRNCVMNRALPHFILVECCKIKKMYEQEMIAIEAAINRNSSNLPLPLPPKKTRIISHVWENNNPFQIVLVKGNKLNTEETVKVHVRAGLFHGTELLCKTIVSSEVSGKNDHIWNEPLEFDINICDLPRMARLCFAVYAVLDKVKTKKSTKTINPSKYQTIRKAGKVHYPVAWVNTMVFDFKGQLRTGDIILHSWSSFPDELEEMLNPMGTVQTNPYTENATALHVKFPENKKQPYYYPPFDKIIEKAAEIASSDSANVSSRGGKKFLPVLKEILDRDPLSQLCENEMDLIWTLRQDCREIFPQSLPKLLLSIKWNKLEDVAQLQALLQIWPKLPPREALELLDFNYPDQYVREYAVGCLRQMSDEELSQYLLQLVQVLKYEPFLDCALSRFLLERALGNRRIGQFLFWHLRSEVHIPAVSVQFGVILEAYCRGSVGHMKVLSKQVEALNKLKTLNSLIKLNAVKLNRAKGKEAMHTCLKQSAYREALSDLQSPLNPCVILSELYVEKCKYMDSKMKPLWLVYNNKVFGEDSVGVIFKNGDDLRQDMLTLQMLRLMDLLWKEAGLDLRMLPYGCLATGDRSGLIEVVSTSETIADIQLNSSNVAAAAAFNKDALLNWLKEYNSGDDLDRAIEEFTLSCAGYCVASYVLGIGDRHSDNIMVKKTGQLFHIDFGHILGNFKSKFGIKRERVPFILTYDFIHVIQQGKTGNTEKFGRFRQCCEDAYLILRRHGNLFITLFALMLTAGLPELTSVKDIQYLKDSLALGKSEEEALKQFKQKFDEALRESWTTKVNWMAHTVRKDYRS

In ChEMBL document CHEMBL3585342, “Exploring the isoform selectivity of TGX-221 related pyrido[1,2-a]pyrimidinone-based Class IA PI 3-kinase inhibitors: synthesis, biological evaluation and molecular modelling” (Bioorg Med Chem, 2015):

Biological target: Phosphatidylinositol 4,5-bisphosphate 3-kinase catalytic subunit beta isoform (Homo sapiens, UniProt P42338)
Format: cell-based, Sf9

IC50: 4 nM
Compound: Cc1cc(C(C)Nc2ccccc2)c2nc(N3CCOCC3)cc(=O)n2c1 (racemic)
